Rce1 inh = yeast Ras-converting enzyme inhibition; yeast membranes, quenched prenylated peptide cleavage fluorescence; AID 2563; Q03530; calls only; actives 0.27% (n = 290,000);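 active = fall in fluorescence gain of 50% or more versus controls, with final raw signal at or below 3038400; inconclusive = same 50% fall but final raw signal above 3038400; inactive = fall in fluorescence gain under 50%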
UUG fidelity = alters start codon recognition fidelity in yeast; AID 602363; activity score, % at 18.7 µM; 350,000 tested, 0.13% active; S. cerevisiae UUG-firefly luciferase reporter, luminescence/redox ratio;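 active means replicate mean at a twofold rise or more, about +100% in these data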;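 further: firefly luciferase made from a UUG start codon reports start codon fidelity; reporter light over untreated wells divided by growth signal over untreated wells; some hits fall short of that in this replicate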
TbMetRS inhib = Trypanosoma brucei MetRS inhibition | purified T. brucei MetRS, ATP depletion, Kinase-Glo luminescence | inhibition, % at 11.9 µM | actives 0.4% (n = 360,000);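 active = inhibition above a per-plate cutoff of the control wells' mean inhibition plus 3 SD, cut at about 5.5% in these data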
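Test system: purified T. brucei MetRS enzyme. Also added: ATP, methionine and E. coli bulk tRNA substrates. Compound: 11.9 µM single point. Schedule: 15 min enzyme-compound preincubation, 2 h reaction, 10 min detection, 25 °C. Signal: luciferase luminescence of residual ATP, Kinase-Glo. Evaluation: percent inhibition versus plate control medians. Controls: DMSO wells, low control.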
Arr AP2 block = blocks beta-arrestin peptide binding to AP2 adaptin. FITC-arrestin peptide / GST-AP2 beads, flow cytometry; AP2 beta2 appendage carries R879A mutation. inhibition, % at 10 µM. actives 0.31% (n = 340,000);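 active = inhibition above a set limit, near 3 SD of compounds lacking own fluorescence, cut at about 54% in these data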
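Material – GST-tagged AP2 beta2-adaptin appendage (R879A) on 4 µm glutathione beads · Probe or stimulus – fluorescein-tagged arrestin peptide at 50 nM final · Timing – 12 min plus 1 h, RT · Detection – bead flow cytometry, FITC channel · Read-out basis – inhibition as reduced fluorescein signal on beads, percent · Medium – PBS plus Tween 20 (0.05%) and BSA (0.1%)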
DSG3 Ab inh = blocks pemphigus antibody binding to human desmoglein-3; P32926; DSG3-coupled beads, scFv-anti-DSG3-GFP binding, flow cytometry; stronger effect = lower value; binding (percent of control), % at 10 µM; actives 0.48% (n = 310,000); AID 588358;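 active = binding more than 3 SD below its plate's average and above zero; inconclusive = below that plate limit but binding exactly zero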;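 also: hits lower antibody fragment binding to DSG3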
TbMetRS confirm = Trypanosoma brucei MetRS inhibition confirmed. shares compounds with TbMetRS inhib. T. brucei MetRS enzyme, luminescence (ATP depletion). inhibition, % at 11.9 µM. actives 93% (n = 1,400). AID 624412; in the data active = inhibition above about 7%
Jurkat tox = counter-screen for T. brucei MetRS inhibitors: Jurkat cell cytotoxicity; actives 12% (n = 1,400); inhibition, % at 8.3 µM; shares compounds with TbMetRS inhib; Jurkat cells viability, ATP luminescence; in the data active = inhibition above about 15%
TbMetRS FP orth = orthogonal test for Trypanosoma brucei MetRS inhibitors. inhibition, % at 11.9 µM. shares compounds with TbMetRS inhib. purified T. brucei MetRS, fluorescence polarization. actives 44% (n = 1,400). AID 651607; in the data active = inhibition above about 17%
A number is an active result; 0 = inactive; ? = inconclusive; - = no result. Rows were chosen to be rich in hits. Some 1.2% of all compounds tested hit in one or more screens of this group.

SMILES	Rce1 inh	UUG fidelity	TbMetRS inhib	Arr AP2 block	DSG3 Ab inh	TbMetRS confirm	Jurkat tox	TbMetRS FP orth
O=C(N=Nc1c(O)[nH]c2ccc(Br)cc12)c1ccccc1-n1cccc1	0	0	8.6	0	0	26	76	0
O=C(c1ccc(F)cc1)N1[C@@H](CO)[C@@H]2c3ccccc3NC[C@@H]21	-	0	-	-	-	-	-	-
O=C(NCCCCCCNC(=O)c1ccccc1O)c1ccccc1O	0	0	6.7	0	0	14	0	0
Cc1nc2nc(SCc3nc4ccccc4[nH]3)[nH]c2cc1Br	0	0	13	0	0	18	0	0
Cc1nc2nc(SCC(=O)C(C)(C)C)[nH]c2cc1Br	0	0	0	0	?	-	-	-
CSC[C@H]1CN(c2ccccc2)C(=O)[C@@H]1CC(=O)Nc1ccc(Br)cc1	-	0	21	-	-	36	0	0
CSC[C@H]1CN(CCc2ccccc2)C(=O)[C@@H]1CC(=O)Nc1ccc(Br)cc1	-	0	15	-	-	37	0	0
CCCCN1C[C@H](CSC)[C@@H](CC(=O)Nc2ccc(Br)cc2)C1=O	-	0	37	-	-	54	0	25
O=C(/C=C/c1ccc(Br)cc1)NC(=O)c1ccccc1O	-	0	7.2	0	0	8.8	0	0
O=C(/C=C/c1ccc(O)c(O)c1)NC(=O)c1ccccc1O	0	0	0	0	0	-	-	-
N#Cc1ccc(Sc2nc3ccccc3[nH]2)cc1C#N	0	0	17	0	-	29	0	0
O=C(C[C@H]1C[C@@H]2c3cc(NS(=O)(=O)c4ccc(F)cc4)ccc3O[C@@H]2[C@H](CO)O1)NC1CCCC1	-	0	-	-	-	-	-	-
C[C@@H]1CN([C@@H](C)CO)C(=O)c2cccc(NC(=O)Nc3ccc4c(c3)OCO4)c2O[C@H]1CN(C)Cc1ccc(C(F)(F)F)cc1	-	0	-	-	-	-	-	-
O=C(C[C@H]1CC[C@H]2[C@@H](COC[C@H](O)CN2C(=O)c2ccncc2)O1)NC1Cc2ccccc2C1	-	0	-	-	-	-	-	-
CCOc1ccc(CN2CCN(Cc3cc4ccccc4[nH]3)CC2CCO)cc1 (stereo not given)	0	0	14	0	0	26	0	0
CCNC(=S)N(Cc1cc2cc(C)ccc2[nH]c1=O)C1CCCC1	0	-	11	0	0	22	0	0
O=C(c1c[nH]c2ccccc12)C(Cl)c1ccccc1 (stereo not given)	0	0	25	0	0	45	45	23
O=C(c1c[nH]c2ccccc12)C(O)C(c1ccccc1)N1CCOCC1 (stereo not given)	0	0	0	0	?	-	-	-
COc1ccc(C)cc1NC(=O)C(OC(=O)C1=NNC(=O)CC1)c1ccccc1 (stereo not given)	-	0	0	0	0	-	-	-
O=C1CCC(C(=O)OC(C(=O)c2c[nH]c3ccccc23)c2ccccc2)=NN1 (stereo not given)	0	0	9.9	0	0	24	0	0
Cc1ccc(C(=O)C(OC(=O)c2cnccn2)c2ccccc2)cc1 (stereo not given)	0	0	0	0	0	-	-	-
O=C(OC(C(=O)c1c[nH]c2ccccc12)c1ccccc1)c1cnccn1 (stereo not given)	0	0	15	0	?	27	0	17
C[C@@H]1CN([C@H](C)CO)C(=O)Cc2cc(NC(=O)C3CCCCC3)ccc2O[C@@H]1CN(C)Cc1ccc(Oc2ccccc2)cc1	-	0	-	-	-	-	-	-
Cc1ccc2nc(SCc3nnc(-c4ccccc4Br)o3)[nH]c2c1	0	0	7.8	0	-	11	0	0
Cc1cc(=O)[nH]c(SCc2nnc(-c3ccccc3)o2)n1	0	0	0	0	0	-	-	-
SMILES	Rce1 inh	UUG fidelity	TbMetRS inhib	Arr AP2 block	DSG3 Ab inh	TbMetRS confirm	Jurkat tox	TbMetRS FP orth
Clc1ccc(OCc2nnc(SCc3nnc(-c4ccccc4)o3)o2)c(Cl)c1	0	0	6.7	0	0	17	0	0
Clc1ccc2nc(SCc3nnc(-c4ccccc4)o3)[nH]c2c1	0	0	7.5	0	0	17	0	0
O=C(CSc1nnc(COc2ccc(Cl)cc2Cl)o1)Nc1ccccn1	0	0	0	0	-	-	-	-
C[C@H]1CN([C@@H](C)CO)C(=O)Cc2cc(NC(=O)C3CC3)ccc2O[C@H]1CN(C)Cc1ccc(C(=O)Nc2ccccc2N)cc1	-	0	-	-	-	-	-	-
C[C@H](CO)N1C[C@H](C)[C@@H](CN(C)C(=O)Nc2ccccc2)Oc2ccc(NS(=O)(=O)c3ccc(F)cc3)cc2CC1=O	-	0	-	-	-	-	-	-
OC(c1cccc(F)c1)c1ncc(-c2ccc3ccccc3c2)[nH]1 (stereo not given)	-	-	0	-	-	-	-	-
OC(c1cc(F)cc(Cl)c1)c1ncc(-c2ccc3ccccc3c2)[nH]1 (stereo not given)	-	-	76	-	-	92	0	75
OC(c1cc(F)cc(Cl)c1)c1ncc(-c2ccccc2Cl)[nH]1 (stereo not given)	-	0	24	-	-	58	0	24
OC(c1cccc(Cl)c1)c1ncc(-c2ccc3ccccc3c2)[nH]1 (stereo not given)	-	0	42	-	-	74	0	47
Cc1ccc(-c2cnc(C(O)c3ccc(Cl)c(Cl)c3)[nH]2)cc1 (stereo not given)	-	0	9.4	-	-	37	0	0
CC(C)(C)c1ccc(C(O)c2ncc(-c3ccc4ccccc4c3)[nH]2)cc1 (stereo not given)	-	-	0	-	-	-	-	-
C[C@@H]1CN([C@@H](C)CO)C(=O)c2cccc(NC(=O)Nc3ccc(C(F)(F)F)cc3)c2O[C@@H]1CN(C)C(=O)NC1CCCCC1	-	0	-	-	-	-	-	-
C[C@H]1CCCCO[C@@H](CN(C)C(=O)Nc2ccc3c(c2)OCO3)[C@@H](C)CN([C@@H](C)CO)C(=O)c2cc(NC(=O)c3ccccc3)ccc2O1	-	0	-	-	-	-	-	-
Cc1ccc(-c2cnc(C(O)c3ccc(Cl)c(F)c3)[nH]2)cc1 (stereo not given)	-	0	0	-	-	-	-	-
Cc1ccc(-c2cnc(C(O)c3cc(F)cc(Cl)c3)[nH]2)cc1 (stereo not given)	-	0	10	-	-	39	0	0
Cc1nnc(NCc2cccc(Cl)c2)c2ccccc12	0	0	12	0	0	19	0	0
O=C(COc1nsnc1N1CCOCC1)Nc1ccc(Br)cc1	0	0	20	0	-	43	0	25
Oc1cccc(Nc2nc(O)c(/C=C3\C=Nc4ccccc43)s2)c1	-	0	17	0	0	21	0	28
Oc1nc(Nc2cccc(Cl)c2)sc1/C=C1\C=Nc2ccccc21	0	0	0	0	0	-	-	-

Source: PubChem BioAssay
